From US12059464B2, “Combination therapy involving antibodies against Claudin 18.2 for treatment of cancer” (Astellas Pharma Inc., priority 2012, dated 2024)

System: NUGC-4 xenografts
Test: In vivo tumor targeting of Dyelight 680-labeled antibodies (fluorescence imaging)
Design: species or system nude mice
Details: 24 hours after i.v. injection; 80 μg Dyelight 680-labeled antibody

## Trastuzumab: antibody whose target is HER2/neu; Dyelight 680-labeled positive control [reference compound]
  localisation of labeled antibody, live imaging: detected exclusively in the xenografts
